Reference: patent US8048899B2, “Compounds which selectively modulate the CB2 receptor” (Boehringer Ingelheim International GmbH, priority 2008, dated 2011)

Amino acid sequences for entries named in this document (tags omitted).
UniProt P21554, whole entry: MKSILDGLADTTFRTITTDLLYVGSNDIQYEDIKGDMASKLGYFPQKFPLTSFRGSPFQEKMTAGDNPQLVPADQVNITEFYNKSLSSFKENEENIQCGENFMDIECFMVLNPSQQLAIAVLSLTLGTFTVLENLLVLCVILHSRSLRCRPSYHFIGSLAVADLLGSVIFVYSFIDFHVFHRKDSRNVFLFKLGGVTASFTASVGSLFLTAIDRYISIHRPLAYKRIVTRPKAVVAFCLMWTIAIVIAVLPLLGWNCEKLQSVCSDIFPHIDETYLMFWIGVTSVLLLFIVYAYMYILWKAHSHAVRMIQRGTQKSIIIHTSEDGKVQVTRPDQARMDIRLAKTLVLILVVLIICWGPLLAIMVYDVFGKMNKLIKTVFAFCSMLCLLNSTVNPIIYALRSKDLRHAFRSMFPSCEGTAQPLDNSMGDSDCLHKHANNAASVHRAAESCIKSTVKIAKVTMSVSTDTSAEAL
UniProt P34972, whole entry: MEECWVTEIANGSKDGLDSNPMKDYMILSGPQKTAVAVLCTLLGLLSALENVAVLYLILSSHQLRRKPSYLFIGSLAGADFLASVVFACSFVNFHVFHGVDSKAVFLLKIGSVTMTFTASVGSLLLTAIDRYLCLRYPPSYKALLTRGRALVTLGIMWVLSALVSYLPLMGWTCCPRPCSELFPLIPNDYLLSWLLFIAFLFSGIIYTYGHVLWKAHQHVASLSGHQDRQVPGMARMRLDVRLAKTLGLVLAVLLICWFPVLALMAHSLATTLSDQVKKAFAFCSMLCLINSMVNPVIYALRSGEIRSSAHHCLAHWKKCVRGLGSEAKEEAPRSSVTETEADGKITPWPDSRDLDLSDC

Columns and labels:
[1] = molecular target: human CB1R (Homo sapiens, UniProt P21554); experiment: CB1R mediated modulation of cAMP synthesis; assay type: cell-based; conditions: read-out: CB1 EC50; CHO cells expressing human CB1R; inhibition of forskolin-stimulated cAMP synthesis
Method: C. CB1R Mediated Modulation of cAMP Synthesis:
Compounds of the invention are evaluated for their CB1 agonist or inverse agonistic activity in accordance with the following experimental method.
(§1) CHO cells expressing human CB1R (Euroscreen) are plated at a density of 5000 cells per well in 384 well plates and incubated overnight at 37° C. After removing the media, the cells are treated with test compounds diluted in stimulation buffer containing 1 mM IBMX, 0.25% BSA and 10 uM Forskolin. The assay is incubated for 30 minutes at 37° C. Cells are lysed and the cAMP concentration is measured using DiscoverX-XS cAMP kit, following the manufacturer's protocol. In this setting, agonists will decrease forskolin induced production of cAMP while inverse agonists will further increase forskolin induced production of cAMP. EC50 of agonists are calculated as follows. The maximal amount of cAMP produced by forskolin compared to the level of cAMP inhibited by 1 uM CP55940 is defined as 100%. The EC50 value of each test compound is determined as the concentration at which 50% of the forskolin-stimulated cAMP synthesis is inhibited. Data is analyzed using a four-parameter logistic model. (Model 205 of XLfit 4.0).

[2] = molecular target: human CB2R (Homo sapiens, UniProt P34972); experiment: CB2R mediated modulation of cAMP synthesis; assay type: cell-based; conditions: read-out: CB2 EC50; CHO cells expressing human CB2R; inhibition of forskolin-stimulated cAMP synthesis
Method: B. CB2R Mediated Modulation of cAMP Synthesis:
Compounds of the invention are evaluated for their CB2 agonist or inverse agonistic activity in accordance with the following experimental method.
as §1, with “CB2R” for “CB1R”

## CC(C)(CO)c1nnc(NC(=O)C(C)(C)S(=O)(=O)CCCC(F)(F)F)s1
[1]
  EC50: > 50000 nM
[2]
  EC50: 93 nM
